Test results as given in US11427548B2 (Arvinas Operations, Inc., priority 2015, dated 2022).

By UniProt entry, the sequences of proteins in these tests, tags left out.
UniProt P10275, whole entry: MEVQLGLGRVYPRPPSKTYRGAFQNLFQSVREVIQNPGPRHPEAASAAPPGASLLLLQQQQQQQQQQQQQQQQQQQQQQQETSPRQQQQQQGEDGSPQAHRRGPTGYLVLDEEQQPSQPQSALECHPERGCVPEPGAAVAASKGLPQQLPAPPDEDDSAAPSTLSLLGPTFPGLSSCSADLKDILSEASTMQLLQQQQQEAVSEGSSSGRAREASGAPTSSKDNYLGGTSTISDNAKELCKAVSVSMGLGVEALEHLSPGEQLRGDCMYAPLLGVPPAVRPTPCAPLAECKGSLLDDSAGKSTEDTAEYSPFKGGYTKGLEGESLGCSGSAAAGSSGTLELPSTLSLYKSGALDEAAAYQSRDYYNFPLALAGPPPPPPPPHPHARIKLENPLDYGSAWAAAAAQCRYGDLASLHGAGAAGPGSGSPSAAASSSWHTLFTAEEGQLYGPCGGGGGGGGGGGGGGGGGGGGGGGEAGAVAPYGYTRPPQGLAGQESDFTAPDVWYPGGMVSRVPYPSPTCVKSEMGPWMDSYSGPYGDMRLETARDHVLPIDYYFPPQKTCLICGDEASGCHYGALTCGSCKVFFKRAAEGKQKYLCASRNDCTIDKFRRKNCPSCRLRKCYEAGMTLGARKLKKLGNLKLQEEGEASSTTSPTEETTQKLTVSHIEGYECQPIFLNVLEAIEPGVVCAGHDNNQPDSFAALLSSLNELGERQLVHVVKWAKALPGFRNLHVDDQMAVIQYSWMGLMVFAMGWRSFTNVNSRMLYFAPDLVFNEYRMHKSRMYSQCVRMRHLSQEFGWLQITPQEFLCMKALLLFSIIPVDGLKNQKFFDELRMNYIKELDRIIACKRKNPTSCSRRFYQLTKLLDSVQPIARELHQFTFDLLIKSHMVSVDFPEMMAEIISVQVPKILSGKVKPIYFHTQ

Target: Androgen Receptor (Homo sapiens, UniProt P10275)
Test: Androgen Receptor ELISA assay (PathScan AR ELISA) in VCaP cells: AR degradation, Dmax and DC50
Type: cell-based

Question: Which results are given for `Cc1ncoc1-c1ccc([C@H](C)NC(=O)[C@@H]2C[C@@H](O)CN2C(=O)[C@@H](NC(=O)COC[C@H]2CC3(C2)C[C@H](COc2ccc(N4C(=S)N(c5ccc(C#N)c(C(F)(F)F)c5)C(=O)C4(C)C)cc2)C3)C(C)(C)C)cc1` (single isomer, unassigned)?
Answer: VCaP Dmax (%) (Table 34): ++++ (71% ≤ Dmax); DC50 (read-out: VCaP DC50, Table 34): < 50 nM
